The record followed here is paper doi:10.1101/2020.09.09.273011.

Amino acid sequences for entries named in this document (tags omitted). Residues count along the entry.
UniProt Q9NYQ7, 33-3312: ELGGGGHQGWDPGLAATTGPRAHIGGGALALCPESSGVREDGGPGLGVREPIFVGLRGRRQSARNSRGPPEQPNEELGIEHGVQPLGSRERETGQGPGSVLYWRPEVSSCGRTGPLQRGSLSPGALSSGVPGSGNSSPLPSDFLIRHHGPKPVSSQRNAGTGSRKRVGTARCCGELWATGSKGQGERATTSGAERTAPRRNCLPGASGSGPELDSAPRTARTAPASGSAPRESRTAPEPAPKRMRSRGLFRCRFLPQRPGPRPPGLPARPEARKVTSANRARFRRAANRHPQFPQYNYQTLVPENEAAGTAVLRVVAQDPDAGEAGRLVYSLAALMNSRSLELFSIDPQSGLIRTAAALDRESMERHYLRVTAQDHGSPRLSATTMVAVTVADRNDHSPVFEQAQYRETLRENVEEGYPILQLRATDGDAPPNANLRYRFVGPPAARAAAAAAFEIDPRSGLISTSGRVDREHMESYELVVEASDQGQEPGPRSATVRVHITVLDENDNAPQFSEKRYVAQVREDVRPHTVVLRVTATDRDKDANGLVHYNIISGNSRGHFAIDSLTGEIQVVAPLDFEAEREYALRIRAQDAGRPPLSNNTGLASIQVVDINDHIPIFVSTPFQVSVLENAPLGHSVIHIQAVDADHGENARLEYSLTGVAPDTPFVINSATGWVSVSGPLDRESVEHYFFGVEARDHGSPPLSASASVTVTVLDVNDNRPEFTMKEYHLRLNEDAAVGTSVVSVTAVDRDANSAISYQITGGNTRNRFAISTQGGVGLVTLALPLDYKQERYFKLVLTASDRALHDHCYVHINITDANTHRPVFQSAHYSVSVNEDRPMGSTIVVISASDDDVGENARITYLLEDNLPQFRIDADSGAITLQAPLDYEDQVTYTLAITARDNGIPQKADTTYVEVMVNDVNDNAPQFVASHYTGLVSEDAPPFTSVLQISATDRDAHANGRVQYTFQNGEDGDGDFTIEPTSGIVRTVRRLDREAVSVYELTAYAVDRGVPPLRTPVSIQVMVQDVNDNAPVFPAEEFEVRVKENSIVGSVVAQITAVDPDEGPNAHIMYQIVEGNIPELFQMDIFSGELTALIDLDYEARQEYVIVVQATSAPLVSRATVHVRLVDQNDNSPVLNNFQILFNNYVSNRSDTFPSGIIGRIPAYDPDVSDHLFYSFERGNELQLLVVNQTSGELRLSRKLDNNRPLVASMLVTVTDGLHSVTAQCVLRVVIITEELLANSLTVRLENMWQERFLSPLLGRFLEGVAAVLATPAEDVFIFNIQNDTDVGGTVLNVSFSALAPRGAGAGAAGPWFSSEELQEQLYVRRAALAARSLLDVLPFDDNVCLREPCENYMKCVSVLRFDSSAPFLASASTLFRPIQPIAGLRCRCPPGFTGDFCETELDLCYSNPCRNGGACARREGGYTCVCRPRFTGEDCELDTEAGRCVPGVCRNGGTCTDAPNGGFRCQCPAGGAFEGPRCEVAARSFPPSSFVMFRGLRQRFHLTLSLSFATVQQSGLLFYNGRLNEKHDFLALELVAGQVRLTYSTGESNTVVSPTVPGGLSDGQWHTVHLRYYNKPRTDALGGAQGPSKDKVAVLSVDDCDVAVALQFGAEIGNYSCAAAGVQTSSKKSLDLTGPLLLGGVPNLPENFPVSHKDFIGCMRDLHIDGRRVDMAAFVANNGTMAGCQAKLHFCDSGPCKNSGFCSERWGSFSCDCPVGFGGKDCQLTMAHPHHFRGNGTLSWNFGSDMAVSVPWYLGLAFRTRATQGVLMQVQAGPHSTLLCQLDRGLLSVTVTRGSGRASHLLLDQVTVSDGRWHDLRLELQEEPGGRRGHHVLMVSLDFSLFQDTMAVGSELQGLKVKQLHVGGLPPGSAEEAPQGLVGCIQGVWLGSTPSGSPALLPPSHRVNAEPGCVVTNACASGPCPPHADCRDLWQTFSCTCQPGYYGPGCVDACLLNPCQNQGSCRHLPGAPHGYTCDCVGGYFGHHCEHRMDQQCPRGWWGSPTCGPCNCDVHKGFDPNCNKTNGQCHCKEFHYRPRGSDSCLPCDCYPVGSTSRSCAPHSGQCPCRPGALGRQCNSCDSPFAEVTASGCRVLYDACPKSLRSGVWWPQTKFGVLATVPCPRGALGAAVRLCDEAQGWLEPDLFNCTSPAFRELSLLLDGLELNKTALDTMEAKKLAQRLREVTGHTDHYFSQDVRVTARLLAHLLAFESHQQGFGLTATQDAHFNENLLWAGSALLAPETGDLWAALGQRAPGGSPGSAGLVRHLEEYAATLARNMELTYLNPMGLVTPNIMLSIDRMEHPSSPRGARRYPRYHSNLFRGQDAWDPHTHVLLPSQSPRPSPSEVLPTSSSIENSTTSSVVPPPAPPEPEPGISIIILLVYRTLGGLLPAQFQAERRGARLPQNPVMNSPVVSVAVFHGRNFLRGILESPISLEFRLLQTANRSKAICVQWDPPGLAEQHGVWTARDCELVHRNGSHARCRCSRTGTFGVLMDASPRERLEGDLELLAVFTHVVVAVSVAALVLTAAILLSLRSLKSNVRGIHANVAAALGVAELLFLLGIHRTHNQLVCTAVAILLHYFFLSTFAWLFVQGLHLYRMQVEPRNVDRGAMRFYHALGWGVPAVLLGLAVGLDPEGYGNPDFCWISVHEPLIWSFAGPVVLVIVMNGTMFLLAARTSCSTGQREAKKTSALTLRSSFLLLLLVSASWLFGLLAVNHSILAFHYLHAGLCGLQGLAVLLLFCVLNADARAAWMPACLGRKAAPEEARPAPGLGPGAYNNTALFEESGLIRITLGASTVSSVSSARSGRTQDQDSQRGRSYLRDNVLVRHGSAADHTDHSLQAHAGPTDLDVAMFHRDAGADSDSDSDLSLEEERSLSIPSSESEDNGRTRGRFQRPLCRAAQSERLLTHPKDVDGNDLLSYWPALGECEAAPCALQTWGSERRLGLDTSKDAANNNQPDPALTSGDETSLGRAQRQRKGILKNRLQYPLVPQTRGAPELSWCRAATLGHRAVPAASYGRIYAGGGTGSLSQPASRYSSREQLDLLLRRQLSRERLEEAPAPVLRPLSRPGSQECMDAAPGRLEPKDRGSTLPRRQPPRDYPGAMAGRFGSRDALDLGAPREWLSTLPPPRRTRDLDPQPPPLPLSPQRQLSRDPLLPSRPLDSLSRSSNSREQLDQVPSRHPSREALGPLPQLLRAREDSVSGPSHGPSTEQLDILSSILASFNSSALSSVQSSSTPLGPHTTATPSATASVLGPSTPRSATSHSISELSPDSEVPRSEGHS
UniProt Q91ZI0, 32-3301: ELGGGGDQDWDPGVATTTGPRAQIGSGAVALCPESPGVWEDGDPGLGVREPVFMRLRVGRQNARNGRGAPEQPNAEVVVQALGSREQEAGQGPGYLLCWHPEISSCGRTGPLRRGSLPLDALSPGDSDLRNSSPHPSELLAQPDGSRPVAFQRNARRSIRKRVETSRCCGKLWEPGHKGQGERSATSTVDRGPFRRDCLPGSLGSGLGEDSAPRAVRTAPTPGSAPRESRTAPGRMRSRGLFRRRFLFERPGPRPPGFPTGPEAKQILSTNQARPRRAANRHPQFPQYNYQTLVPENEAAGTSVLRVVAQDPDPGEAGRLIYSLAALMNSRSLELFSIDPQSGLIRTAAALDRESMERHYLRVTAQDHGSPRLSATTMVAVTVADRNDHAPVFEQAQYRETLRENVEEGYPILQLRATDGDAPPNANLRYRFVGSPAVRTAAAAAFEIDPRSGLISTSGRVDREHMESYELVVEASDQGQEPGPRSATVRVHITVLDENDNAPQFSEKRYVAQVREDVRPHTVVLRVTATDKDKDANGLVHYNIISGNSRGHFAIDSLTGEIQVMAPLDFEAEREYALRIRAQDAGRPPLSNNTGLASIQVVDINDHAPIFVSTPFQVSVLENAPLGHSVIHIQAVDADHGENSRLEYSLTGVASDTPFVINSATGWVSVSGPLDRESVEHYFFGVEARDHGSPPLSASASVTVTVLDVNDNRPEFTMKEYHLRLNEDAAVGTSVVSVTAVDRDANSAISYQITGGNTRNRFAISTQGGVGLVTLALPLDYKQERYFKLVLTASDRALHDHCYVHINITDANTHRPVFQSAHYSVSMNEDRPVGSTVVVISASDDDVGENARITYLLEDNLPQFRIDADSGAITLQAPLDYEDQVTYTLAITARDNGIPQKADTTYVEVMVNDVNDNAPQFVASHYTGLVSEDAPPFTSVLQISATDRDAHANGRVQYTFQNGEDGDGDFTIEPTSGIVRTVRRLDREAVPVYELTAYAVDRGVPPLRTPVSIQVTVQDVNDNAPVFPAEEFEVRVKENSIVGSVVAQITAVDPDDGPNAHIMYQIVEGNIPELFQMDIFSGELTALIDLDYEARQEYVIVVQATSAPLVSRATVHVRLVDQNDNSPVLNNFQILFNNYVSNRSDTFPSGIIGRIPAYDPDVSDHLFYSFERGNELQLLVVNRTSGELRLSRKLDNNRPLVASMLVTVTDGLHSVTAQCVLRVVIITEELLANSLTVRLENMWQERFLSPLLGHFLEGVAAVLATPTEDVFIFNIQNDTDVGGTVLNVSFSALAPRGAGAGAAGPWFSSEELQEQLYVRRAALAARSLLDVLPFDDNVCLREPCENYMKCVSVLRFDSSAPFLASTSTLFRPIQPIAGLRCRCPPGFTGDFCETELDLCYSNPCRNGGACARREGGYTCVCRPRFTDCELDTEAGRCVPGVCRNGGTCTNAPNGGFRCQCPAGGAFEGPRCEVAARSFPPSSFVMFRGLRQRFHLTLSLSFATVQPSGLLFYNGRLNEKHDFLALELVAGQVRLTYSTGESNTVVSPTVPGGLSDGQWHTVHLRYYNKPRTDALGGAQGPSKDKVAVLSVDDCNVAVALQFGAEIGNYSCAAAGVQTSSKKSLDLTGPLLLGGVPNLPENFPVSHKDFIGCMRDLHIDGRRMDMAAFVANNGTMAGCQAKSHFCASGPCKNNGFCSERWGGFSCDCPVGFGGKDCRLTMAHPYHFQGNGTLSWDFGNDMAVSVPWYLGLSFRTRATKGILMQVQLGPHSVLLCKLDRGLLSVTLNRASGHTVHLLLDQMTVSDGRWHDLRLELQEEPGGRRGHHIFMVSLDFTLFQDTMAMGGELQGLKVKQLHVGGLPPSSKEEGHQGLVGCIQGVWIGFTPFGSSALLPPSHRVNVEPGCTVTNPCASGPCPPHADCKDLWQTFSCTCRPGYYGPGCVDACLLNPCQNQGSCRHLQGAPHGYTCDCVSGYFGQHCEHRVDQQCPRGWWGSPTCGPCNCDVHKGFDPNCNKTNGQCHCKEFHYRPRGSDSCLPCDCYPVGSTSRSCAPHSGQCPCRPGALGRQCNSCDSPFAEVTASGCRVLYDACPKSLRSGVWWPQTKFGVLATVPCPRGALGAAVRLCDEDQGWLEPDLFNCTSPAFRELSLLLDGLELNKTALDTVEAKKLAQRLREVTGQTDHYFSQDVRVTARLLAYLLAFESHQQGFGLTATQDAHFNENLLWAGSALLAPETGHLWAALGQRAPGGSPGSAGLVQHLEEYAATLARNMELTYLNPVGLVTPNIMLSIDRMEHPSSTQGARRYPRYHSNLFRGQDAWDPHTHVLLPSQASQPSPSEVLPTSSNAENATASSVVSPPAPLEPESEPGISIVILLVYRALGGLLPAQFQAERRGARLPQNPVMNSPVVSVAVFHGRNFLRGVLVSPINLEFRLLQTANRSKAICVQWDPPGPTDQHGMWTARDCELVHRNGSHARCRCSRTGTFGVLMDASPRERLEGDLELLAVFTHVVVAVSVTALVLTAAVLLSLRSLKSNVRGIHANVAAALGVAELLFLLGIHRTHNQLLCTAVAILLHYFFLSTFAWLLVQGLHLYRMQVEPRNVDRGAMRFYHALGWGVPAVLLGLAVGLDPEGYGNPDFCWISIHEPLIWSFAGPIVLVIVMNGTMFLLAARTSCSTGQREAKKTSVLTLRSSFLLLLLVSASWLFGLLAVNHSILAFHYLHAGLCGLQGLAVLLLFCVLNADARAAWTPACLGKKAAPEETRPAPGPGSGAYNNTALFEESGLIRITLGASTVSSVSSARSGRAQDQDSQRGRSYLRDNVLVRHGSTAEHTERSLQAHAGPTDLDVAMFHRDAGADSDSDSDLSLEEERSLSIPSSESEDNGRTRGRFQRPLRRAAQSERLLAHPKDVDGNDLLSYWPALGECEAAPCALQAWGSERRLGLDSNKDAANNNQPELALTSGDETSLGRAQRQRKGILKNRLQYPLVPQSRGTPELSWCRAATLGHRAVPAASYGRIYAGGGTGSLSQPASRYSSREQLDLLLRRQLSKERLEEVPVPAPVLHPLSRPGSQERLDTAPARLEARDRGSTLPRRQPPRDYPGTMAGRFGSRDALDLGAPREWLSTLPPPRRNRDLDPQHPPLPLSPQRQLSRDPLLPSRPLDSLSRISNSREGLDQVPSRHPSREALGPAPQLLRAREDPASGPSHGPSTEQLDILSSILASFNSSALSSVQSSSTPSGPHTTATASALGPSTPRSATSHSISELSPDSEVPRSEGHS

The target in experiment [1] is human Celsr3 (hCelsr3-Flag) (human) (UniProt Q9NYQ7). Nature of the experiment: saturation binding on transfected cells.
For experiment [2], the target named is mouse Celsr3 (Celsr3-Flag) (mouse) (UniProt Q91ZI0). Nature of the experiment: saturation binding on transfected cells.

In experiment [1], “oligomeric Aβ42 (human biotin-beta-Amyloid (1-42), oligomerised) (from UniProt P05067) (peptide; biotin (position not stated))” gave a Kd of 70 nM.
“oligomeric Aβ42 (human biotin-beta-Amyloid (1-42), oligomerised) (from UniProt P05067) (peptide)”: in experiment [2], the equilibrium dissociation constant (Kd) is 40 nM.

By Kd is commonly meant the constant that tells how readily two partners part at equilibrium. A high value points to a looser complex.
